Results on one compound are retold here after patent US9139523B2, “5-HT2B receptor antagonists” (Janssen Pharmaceutica, NV, priority 2010, dated 2015).

Sequences of proteins named here, by UniProt entry; tags and fusion partners are left off. A change or cut given only in a name is not applied to a line headed by its entry.
UniProt Q12809: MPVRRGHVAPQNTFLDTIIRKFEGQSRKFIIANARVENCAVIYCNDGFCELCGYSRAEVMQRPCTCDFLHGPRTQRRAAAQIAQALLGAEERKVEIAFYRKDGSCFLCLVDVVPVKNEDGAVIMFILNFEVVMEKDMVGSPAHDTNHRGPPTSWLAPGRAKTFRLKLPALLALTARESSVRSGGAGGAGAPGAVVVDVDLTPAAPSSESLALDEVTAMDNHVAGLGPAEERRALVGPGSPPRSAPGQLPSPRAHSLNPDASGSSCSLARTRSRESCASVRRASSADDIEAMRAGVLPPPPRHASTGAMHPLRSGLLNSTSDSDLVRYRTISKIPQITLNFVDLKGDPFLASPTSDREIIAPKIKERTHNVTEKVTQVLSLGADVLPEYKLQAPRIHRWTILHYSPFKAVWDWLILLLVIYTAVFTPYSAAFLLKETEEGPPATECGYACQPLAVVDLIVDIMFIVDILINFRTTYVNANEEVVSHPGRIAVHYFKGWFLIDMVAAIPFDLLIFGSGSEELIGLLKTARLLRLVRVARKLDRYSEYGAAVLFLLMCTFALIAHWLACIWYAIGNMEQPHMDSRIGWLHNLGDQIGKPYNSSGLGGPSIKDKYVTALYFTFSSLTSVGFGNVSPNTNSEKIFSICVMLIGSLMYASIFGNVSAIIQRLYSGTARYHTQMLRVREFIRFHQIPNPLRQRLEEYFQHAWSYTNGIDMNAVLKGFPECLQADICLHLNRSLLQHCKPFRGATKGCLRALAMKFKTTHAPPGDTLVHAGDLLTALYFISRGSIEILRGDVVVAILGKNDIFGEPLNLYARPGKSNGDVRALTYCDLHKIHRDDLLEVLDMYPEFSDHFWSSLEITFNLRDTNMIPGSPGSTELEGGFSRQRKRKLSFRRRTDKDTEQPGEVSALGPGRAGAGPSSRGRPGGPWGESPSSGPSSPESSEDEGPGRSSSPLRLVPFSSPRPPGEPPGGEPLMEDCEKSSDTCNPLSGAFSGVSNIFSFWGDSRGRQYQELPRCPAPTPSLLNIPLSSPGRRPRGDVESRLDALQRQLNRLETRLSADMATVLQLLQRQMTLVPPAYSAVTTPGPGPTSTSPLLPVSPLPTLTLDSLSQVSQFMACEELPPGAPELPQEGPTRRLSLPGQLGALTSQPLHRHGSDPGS

The target in this data set is T1, hERG potassium channel (Homo sapiens, UniProt Q12809).
T1 construct: expressed in transfected cells; host or cells: HEK293
As to the kind of experiment: hERG-transfected HEK293 cells using a Patch Express apparatus. Type of data set: cell-based. Particulars: 5 min, pH 7.4. How it is done:
Experiments were performed using HEK293 cells stably expressing the hERG potassium channel. Cells were grown at 37° C. and 5% CO2 in culture flasks in MEM Medium supplemented with 10% heat-inactivated fetal bovine serum, 1% L-Glutamine-Penicillin-Streptomycin-solution, 1% non-essential amino acids (100×), 1% sodium pyruvate (100 mM) and 0.8% Geneticin (50 mg/ml). Before use the cells were subcultured in MEM medium in the absence of 5 ml L-Glutamine-Penicillin-Streptomycin. For use in the automated patch-clamp system PatchXpress 7000A (Axon Instruments) cells were harvested to obtain cell suspension of single cells. […]
Patch-clamp experiments were performed in the voltage-clamp mode and whole-cell currents were recorded with an automated patch-clamp assay utilizing the PatchXpress 7000A system (Axon Instruments). Current signals were amplified and digitized by a Multiclamp amplifier, stored and analyzed by using the PatchXpress, DataXpress software and Igor 5.0 (Wavemetrics).
The holding potential was −80 mV. The hERG current (K+-selective outward current) was determined as the maximal tail current at −40 mV after a 2 second depolarization to +60 mV. […]
Each concentration of the test substance was applied twice. The effect of each concentration was determined after 5 min as an average current of 3 sequential voltage pulses. […]
Background: Block of hERG is tested as a sign of cardiac risk.

With `COc1cc(N)c(Cl)cc1C(=O)NC1CCN(CCCOc2ccc(F)cc2)CC1OC` (centres unmarked) [Cisapride, reference compound], the “% block of the hERG channel” value is on record as 80 (7) % (100 nM) and 95 (15) % (300 nM).
